How the values were obtained:
[1] = Solubility to solvents (Vertrel XF, n-hexane, ethanol); settings: 25° C., visual observation after 1 day; for Solubility Fluorine-based solvent: Vertrel XF, 0.2 parts by mass per 100 parts; for Solubility Ethanol / Solubility n-Hexane: 0.5 parts by mass per 100 parts
[2] = Solubility to fluorine-based solvent (Vertrel XF), 1.0/0.5/0.1 parts by mass added; settings: Vertrel XF [CF3(CHF)2CF2CF3], 25° C., ultrasonic waves 5 minutes, left 1 day, visual observation; 0.5 and 0.1 parts by mass per 100 parts

Substance	Solubility Fluorine-based solvent [1]	Solubility Ethanol [1] [% by mass]	Solubility n-Hexane [1] [% by mass]	Fluorine-based solvent solubility [2]
nonafluorobutanesulfonic acid-1-octadecyl-2-heptadecylimidazolium [Comparative Example 6A]	Less than 0.2% by mass	≥ 0.5	< 0.5	–
nonafluorobutanesulfonic acid-1-octadecylimidazolium [Comparative Example 1A]	–	–	–	Less than 0.1% by % by mass
nonafluorobutanesulfonic acid-N,N,N-trimethyloctadecylammonium [Comparative Example 9A, reference compound]	Less than 0.2% by mass	≥ 0.5	< 0.5	–
